The entries are a selection whose mix differs from that of the whole data set. Activity calls are given as the source filed them.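 How the source made its calls: active means inhibition above about 35% when tested at 20 µM (limit read from the data); inactive means the rest.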
Target: Hexokinase HKDC1 (Homo sapiens) (UniProt Q2TB90)
Assay: HKDC1 hexokinase inhibitors, primary screen, biochemical, fluorescence, uHTS (AID 493160);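 further: plate controls were DMSO wells with enzyme for no effect and DMSO wells lacking enzyme for full effect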
Conditions: recombinant HKDC1, G6PDH/diaphorase resazurin coupled fluorescence; at 20 µM; active compounds read high

The chains behind the UniProt entries cited, without tags or fusion partners.
UniProt Q2TB90, whole entry: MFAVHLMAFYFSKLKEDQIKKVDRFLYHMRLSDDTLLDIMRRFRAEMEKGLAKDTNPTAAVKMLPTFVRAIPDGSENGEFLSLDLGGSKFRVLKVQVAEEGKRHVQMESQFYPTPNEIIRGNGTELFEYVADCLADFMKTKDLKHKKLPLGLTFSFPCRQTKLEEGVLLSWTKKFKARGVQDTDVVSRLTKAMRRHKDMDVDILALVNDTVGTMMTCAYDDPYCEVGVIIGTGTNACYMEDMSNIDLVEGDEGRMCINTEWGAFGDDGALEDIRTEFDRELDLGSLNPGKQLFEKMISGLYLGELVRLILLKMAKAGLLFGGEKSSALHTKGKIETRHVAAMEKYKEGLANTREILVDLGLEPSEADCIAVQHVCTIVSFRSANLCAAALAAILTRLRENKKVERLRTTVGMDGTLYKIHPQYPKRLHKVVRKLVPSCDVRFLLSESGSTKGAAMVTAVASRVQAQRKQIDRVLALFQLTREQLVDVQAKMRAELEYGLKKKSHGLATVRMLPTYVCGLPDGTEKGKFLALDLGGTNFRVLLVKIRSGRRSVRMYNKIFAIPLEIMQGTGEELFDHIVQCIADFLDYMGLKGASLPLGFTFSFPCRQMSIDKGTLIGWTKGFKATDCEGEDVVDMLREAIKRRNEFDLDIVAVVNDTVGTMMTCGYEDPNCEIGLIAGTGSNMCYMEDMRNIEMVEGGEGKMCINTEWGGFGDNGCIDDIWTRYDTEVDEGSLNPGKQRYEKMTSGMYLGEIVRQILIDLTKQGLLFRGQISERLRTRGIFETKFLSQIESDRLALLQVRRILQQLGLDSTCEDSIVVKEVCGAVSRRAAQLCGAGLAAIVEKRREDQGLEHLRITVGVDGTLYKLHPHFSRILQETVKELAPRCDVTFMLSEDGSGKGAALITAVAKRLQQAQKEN

SMILES	inhibition
CC1=C2N=C(C=C3N=C(C(C)=C4[N-][C@@](C)([C@@H]5N=C1[C@](C)(CCC(=O)NC[C@@H](C)OP(=O)([O-])O[C@H]1[C@@H](O)[C@@H](n6cnc7cc(C)c(C)cc76)O[C@@H]1CO)[C@H]5CC(N)=O)[C@@](C)(CC(N)=O)[C@@H]4CCC(N)=O)[C@@](C)(CC(N)=O)[C@@H]3CCC(N)=O)C(C)(C)[C@@H]2CCC(N)=O.[C-]#N.[Co+3]	inactive: -87.4%
CP(=O)(Nc1ccc(SC(F)(F)F)cc1)Oc1ccccc1 (configuration not stated)	inactive: 19.6%
CCCOc1ccc(NP(C)(=O)Oc2ccc(Cl)cc2)cc1 (configuration not stated)	inactive: -2.62%
COc1ccccc1OP(C)(=O)Nc1c(C)cccc1C (configuration not stated)	inactive: 0.8%
CN1CCCCC1COC(=O)C1(O)c2ccccc2CCc2ccccc21 (configuration not stated)	inactive: 0.17%
O=C(O)c1cccc(Nc2c([N+](=O)[O-])cc([N+](=O)[O-])cc2[N+](=O)[O-])c1	inactive: 6.85%
CC1=NCCc2c1[nH]c1ccccc21.O=[N+]([O-])c1cc([N+](=O)[O-])c(O)c([N+](=O)[O-])c1	inactive: -10.5%
Cc1cc(C)cc(OP(C)(=O)Nc2ccc(C)cc2C)c1 (configuration not stated)	inactive: -10.7%
CCOC(=O)c1ccc(NP(C)(=O)Oc2cc(C)cc(C)c2)cc1 (configuration not stated)	inactive: -2.25%
COc1ccccc1OP(C)(=O)Nc1cccc(Br)c1 (configuration not stated)	inactive: -2.28%
CP(=O)(Nc1cccc(Br)c1)Oc1ccccc1 (configuration not stated)	inactive: -10.8%
Cc1cc(C)cc(OP(C)(=O)Nc2ccccn2)c1 (configuration not stated)	inactive: -11.6%
Cc1ccc(C)c(NP(C)(=O)Oc2ccccc2)c1 (configuration not stated)	inactive: -5.02%
CCN(CC)CCCOC(=O)C(O)(c1ccccc1)c1ccccc1	inactive: -0.05%
Cc1cccc(C)c1OP(C)(N)=O (configuration not stated)	inactive: -1.25%
CC(C)(C)c1ccc(OP(C)(=O)Nc2ccc(SC(F)(F)F)cc2)cc1 (configuration not stated)	inactive: 2.75%
O=[N+]([O-])c1ccc2c(c1)C=Nc1ccccc1O2	inactive: 13.3%
O=[N+]([O-])c1cc([N+](=O)[O-])c(Nc2cccnc2)c([N+](=O)[O-])c1	inactive: 6.63%
COc1ccc(OP(C)(=O)Nc2cccc(F)c2)cc1 (configuration not stated)	inactive: 1.4%

SMILES	inhibition
COc1ccccc1OP(C)(=O)Nc1cc(Cl)ccc1C (configuration not stated)	inactive: -6.01%
Cc1cc(C)cc(OP(C)(N)=O)c1 (configuration not stated)	inactive: -1.21%
CCOC(=O)c1ccc(NP(C)(=O)Oc2ccccc2)cc1 (configuration not stated)	inactive: -10.4%
Cc1ccc(NP(C)(=O)Oc2ccccc2)c(C)c1 (configuration not stated)	inactive: -2.01%
COc1ccccc1OP(C)(=O)Nc1ccc(C)cc1 (configuration not stated)	inactive: -7.62%
COc1ccccc1OP(C)(=O)Nc1ccccc1 (configuration not stated)	inactive: -6.94%
CP(=O)(Nc1ccccc1Br)Oc1ccccc1 (configuration not stated)	inactive: -7.9%
CP(=S)(Nn1cnnc1)Oc1ccccc1 (configuration not stated)	inactive: 0.85%
Cc1cc(C)cc(OP(C)(=O)Nc2ccc(SC(F)(F)F)cc2)c1 (configuration not stated)	inactive: 0.46%
CCc1ccc(OP(C)(=O)N2CCN(c3ccc([N+](=O)[O-])cc3)CC2)cc1 (configuration not stated)	inactive: -2.81%
CP(=O)(NC(=O)Nc1ccccc1)Oc1ccccc1 (configuration not stated)	inactive: 6.06%
CP(=O)(Oc1ccccc1)OC(c1ccccc1)C(F)(F)F (configuration not stated)	inactive: 0.89%
Cc1cccc(C)c1OP(C)(=O)Nc1ccc(SC(F)(F)F)cc1 (configuration not stated)	inactive: 1.4%
CP(=O)(Nc1ccc(SC(F)(F)F)cc1)Oc1ccc(Cl)cc1 (configuration not stated)	inactive: 0.22%
CP(=O)(Nc1ccccn1)Oc1ccc(Cl)cc1 (configuration not stated)	inactive: -12.4%
CCOP(C)(=S)SCC(=O)NC(C)C(=O)O (configuration not stated)	inactive: -4.79%
CCOC(=O)c1ccc(NP(C)(=O)Oc2ccc(OC)cc2)cc1 (configuration not stated)	inactive: 5.53%
O=[N+]([O-])c1cc([N+](=O)[O-])c(O)c([N+](=O)[O-])c1.c1ccc(Oc2ccncc2)cc1	inactive: -2.81%
